Structures are written as SMILES.

The experiment deals with T1, Cocaine esterase (Homo sapiens, UniProt O00748).
T1 sequence (O00748 whole entry): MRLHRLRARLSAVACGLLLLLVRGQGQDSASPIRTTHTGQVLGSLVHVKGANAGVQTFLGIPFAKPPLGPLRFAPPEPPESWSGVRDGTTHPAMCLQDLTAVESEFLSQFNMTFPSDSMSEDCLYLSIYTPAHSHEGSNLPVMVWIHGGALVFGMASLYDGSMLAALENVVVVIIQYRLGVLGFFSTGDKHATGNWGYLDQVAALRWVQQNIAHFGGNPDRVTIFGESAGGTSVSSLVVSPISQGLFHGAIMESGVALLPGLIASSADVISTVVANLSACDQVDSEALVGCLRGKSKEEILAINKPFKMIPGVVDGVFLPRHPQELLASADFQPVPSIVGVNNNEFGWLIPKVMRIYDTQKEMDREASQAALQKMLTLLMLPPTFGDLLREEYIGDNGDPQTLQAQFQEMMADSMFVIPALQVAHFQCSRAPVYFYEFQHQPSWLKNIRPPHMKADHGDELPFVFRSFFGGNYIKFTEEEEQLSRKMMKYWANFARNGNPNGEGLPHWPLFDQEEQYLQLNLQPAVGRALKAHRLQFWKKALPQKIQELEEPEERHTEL
The experiment can be described thus: Inhibition constant against human intestinal carboxylesterase 2 (hiCE) using nitrophenyl acetate (o-NPA) as substrate.

For the compound `CC(=O)C(=O)c1ccccc1`, the affinity, expressed as Ki, was 1840 nM.

Source of the values: ChEMBL document CHEMBL1143603, “Identification and characterization of novel benzil (diphenylethane-1,2-dione) analogues as inhibitors of mammalian carboxylesterases” (J Med Chem, 2005).
